In PubChem BioAssay AID485 (The Scripps Research Institute Molecular Screening Center, 2006):
The entries are a selection whose mix differs from that of the whole data set. Calls of active or inactive are those of the source.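 How the source made its calls: active means inhibition above the plate cutoff, the mean inhibition of test wells on that plate plus 3 SD (cut at about 28% in these data); inactive means the rest.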

The chains behind the UniProt entries cited, without tags or fusion partners. Where a name states a change or a piece, a line headed by the entry shows the natural chain unless it says otherwise.
UniProt Q99500: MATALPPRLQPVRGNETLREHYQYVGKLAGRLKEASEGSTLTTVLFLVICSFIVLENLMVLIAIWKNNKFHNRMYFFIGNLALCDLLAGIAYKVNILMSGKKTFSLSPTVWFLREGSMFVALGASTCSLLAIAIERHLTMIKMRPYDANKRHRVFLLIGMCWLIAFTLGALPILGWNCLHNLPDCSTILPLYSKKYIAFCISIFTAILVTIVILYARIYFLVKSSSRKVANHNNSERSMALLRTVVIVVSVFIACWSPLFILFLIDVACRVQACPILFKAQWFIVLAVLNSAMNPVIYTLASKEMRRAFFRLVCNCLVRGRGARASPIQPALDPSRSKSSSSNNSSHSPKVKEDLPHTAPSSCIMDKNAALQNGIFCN

What follows are compounds tested against Sphingosine 1-phosphate receptor 3 (Homo sapiens) (UniProt Q99500) (assay: inhibition of S1P-stimulated S1P3 activation – cell-based, primary screen (AID 485;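 further: cells challenged with S1P at its EC80 of 0.8 µM; blue over green emission ratio from cleaved BLA substrate after 4 h stimulation; 0% = S1P-stimulated wells and 100% = unstimulated DMSO-only wells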)). Details: CHO S1P3 NFAT-BLA reporter, FRET fluorescence, antagonist mode; at 4.98 µM; active compounds read high.
`CS(=O)(=O)c1cc([N+](=O)[O-])c2no[n+]([O-])c2c1` was tested, and the inhibition was inactive: -0.57%.
With `O=P(Nc1nccs1)(c1ccccc1)c1nc2ccccc2s1` (configuration not stated) the inhibition was active: 74.7%.
`O=P(Nc1nccs1)(Oc1ccccc1)Oc1ccccc1` was tested, and the inhibition was inactive: 17.1%.
With `CCOP1(=S)c2c(C)nn(CCC#N)c2N=C(c2ccccc2F)N1C` (configuration not stated) the inhibition was inactive: -14.5%.
With `O=C(O)COc1ccc([As](=O)(O)O)cc1[N+](=O)[O-]` the inhibition was inactive: 15.6%.
With `Nc1ccccc1[As](=O)(O)c1ccccc1` the inhibition was inactive: 2.67%.
`CCOP1(=S)c2c(C)nn(CCC#N)c2N=C(c2ccc(F)cc2)N1C` (configuration not stated) was tested, and the inhibition was inactive: -12.1%.
`COc1cc(C(=O)NCC2(N3CCOCC3)CCCCC2)cc(Cl)c1OC(C)C` was tested, and the inhibition was inactive: -17.8%.
In the case of `O=[As](O)(O)c1cccnc1`, the inhibition is reported as inactive: -4.09%.
For `O=C(OC1CN2CCC1CC2)c1ccc(Cl)cc1` (configuration not stated), the inhibition was inactive: -1.77%.
For `O=[As](O)(c1cccc(O)c1)c1cccc(O)c1`, the inhibition was inactive: -12.5%.
`CCCOP(=S)(Nc1nc(N)cc(=O)[nH]1)OCCC` was tested, and the inhibition was inactive: -12.8%.
For `Nc1cccc2c([As](=O)(O)O)cccc12`, the inhibition was inactive: 10.2%.
For `Cc1ccc(NCCc2c([N+](=O)[O-])cc([N+](=O)[O-])cc2[N+](=O)[O-])cc1`, the inhibition was inactive: -3.29%.
In the case of `CCOP(=O)(Nc1cccc2ccccc12)OCC`, the inhibition is reported as inactive: -3.46%.
`COc1cc(C2NCCC3(OCCO3)C2(C)C)cc(OC)c1OC` (configuration not stated) was tested, and the inhibition was inactive: -15.1%.
For `CCOP(=O)(Nc1ccc(C)cn1)OCC`, the inhibition was inactive: -0.67%.
`O=P1(Nc2ccccn2)COc2ccccc2OC1` was tested, and the inhibition was inactive: 1.6%.
`CC(C)(C)C(=O)NC(Sc1ncccn1)C(Cl)(Cl)Cl` (configuration not stated) was tested, and the inhibition was inactive: -0.04%.
For `Clc1n[nH]nc1-c1nn[nH][15n]1`, the inhibition was inactive: 4.9%.
For `CN(C(=O)Cc1ccc(Cl)c(Cl)c1)[C@@H]1CCCC[C@H]1N1CCCC1`, the inhibition was inactive: 12.8%.
With `CC(C)/C=N\N=C(\N)N[N+](=O)[O-]` the inhibition was inactive: -2.5%.
For `CC1CCC(C(C)C)C(OP(=O)(Nc2ccccn2)c2ccccc2)C1` (configuration not stated), the inhibition was inactive: 2.2%.
`Cc1nn(-c2ccccc2)c2c1P(=O)(N1CCOCC1)N(C)C(c1ccccc1)=N2` (configuration not stated) was tested, and the inhibition was inactive: -13.3%.
`O=C(/C=C/c1ccccc1)OC1CN2CCC1CC2` (configuration not stated) was tested, and the inhibition was inactive: 5.26%.
In the case of `CN(C)C1(CNC(=O)c2ccc(S(C)(=O)=O)cc2)CCCCC1`, the inhibition is reported as inactive: -26%.
`O=P1(Nc2ncccn2)COc2ccccc2OC1` was tested, and the inhibition was inactive: -0.1%.
With `O=P1(Nc2ccc(Br)cn2)COc2ccccc2OC1` the inhibition was inactive: -13.4%.
In the case of `O=[As](O)(c1cccs1)c1cccs1`, the inhibition is reported as inactive: -7.41%.
With `Nc1cccc([As](=O)(O)c2ccccc2)c1` the inhibition was inactive: 8.3%.
`CCOC(=O)Nc1ccc([As](=O)(O)O)c(O)c1` was tested, and the inhibition was inactive: -3.78%.
`Cc1cc(SC(NC(=O)c2ccccc2)C(Cl)(Cl)Cl)nc(C(C)C)n1` (configuration not stated) was tested, and the inhibition was inactive: 0.39%.
With `CCOC(=O)Nc1cccc([As](=O)(O)O)c1` the inhibition was inactive: -0.3%.
For `O=[N+]([O-])c1ccc(Nc2ccc(Oc3ccc([N+](=O)[O-])cc3[N+](=O)[O-])cc2)c([N+](=O)[O-])c1`, the inhibition was inactive: 3.63%.
In the case of `Cc1cc(SC(NC=O)C(Cl)(Cl)Cl)ncn1` (configuration not stated), the inhibition is reported as inactive: -1.06%.
In the case of `O=P(Nc1ccccn1)(c1cccc2ccccc12)c1cccc2ccccc12`, the inhibition is reported as inactive: -20.6%.
`COP1(=S)c2c(C)nn(CCC#N)c2N=C(c2ccc(F)cc2)N1C` (configuration not stated) was tested, and the inhibition was inactive: -29.4%.
`O=C(COc1ccccc1)OC1CN2CCC1CC2` (configuration not stated) was tested, and the inhibition was inactive: -17.1%.
In the case of `CCOC(=O)c1ccc(NC(=O)C(C)(CCl)SC)cc1` (configuration not stated), the inhibition is reported as inactive: -3.18%.
With `Cc1cc(=O)[nH]c(N[N+](=O)[O-])n1` the inhibition was inactive: -7.39%.
For `O=C(OC1CN2CCC1CC2)C12CC3CC(CC(C3)C1)C2` (configuration not stated), the inhibition was inactive: 6.9%.
For `Cc1c2c(nc3ccccc13)SC(C(Cl)Cl)C2` (configuration not stated), the inhibition was inactive: 8.39%.
`COc1cc(I)ccc1[As](=O)(O)O` was tested, and the inhibition was inactive: -10.2%.
For `COc1ccc2nc(NP(=O)(c3ccccc3)c3ccccc3)sc2c1`, the inhibition was inactive: -12.9%.
`COc1ccc(N/C(=N/P(=O)(N2CCOCC2)N2CCOCC2)N2CCOCC2)cc1` was tested, and the inhibition was inactive: -4.36%.
In the case of `O=[As](O)(c1ccc(O)cc1)c1ccccc1O`, the inhibition is reported as inactive: -0.92%.
For `C[As](=O)(O)c1cccc(C(=O)O)c1`, the inhibition was inactive: -6.93%.
`Cc1ccc2nc3c(c(C)c2c1)CC(C(Cl)Cl)S3` (configuration not stated) was tested, and the inhibition was inactive: -25.8%.
In the case of `Cc1ccc(OP(=O)(Nc2ccc([N+](=O)[O-])cn2)Oc2ccc(C)cc2)cc1`, the inhibition is reported as inactive: 8.21%.
`CC(C)c1ccc(OP(=O)(Nc2ccccn2)Oc2ccccc2F)cc1` (configuration not stated) was tested, and the inhibition was inactive: -14%.
In the case of `O=[N+]([O-])c1cc([N+](=O)[O-])c(-c2ccn[nH]2)s1`, the inhibition is reported as inactive: -5.2%.
In the case of `CC(C)NC(=O)NP(=O)(Oc1ccccc1)Oc1ccccc1`, the inhibition is reported as inactive: -8.44%.
For `O=C(O)c1ccccc1[As](=O)(O)O`, the inhibition was inactive: -5.09%.
With `CC(=O)Nc1ccc([As](=O)(O)O)cc1` the inhibition was inactive: -9.47%.
For `O=P(Nc1nc2ccc(Cl)cc2s1)(c1ccccc1)c1ccccc1`, the inhibition was inactive: 0.91%.
With `Cc1ccc(NP(=O)(Oc2ccccc2F)Oc2ccccc2F)nc1` the inhibition was inactive: 5.46%.
For `CCOP(=O)(Nc1ccccc1)OCC`, the inhibition was inactive: -6.11%.
`Cc1cc(SC(NC(=O)c2ccc(F)cc2)C(Cl)(Cl)Cl)ncn1` (configuration not stated) was tested, and the inhibition was inactive: -1.25%.
`CCN(N=Nc1nonc1N)c1nonc1N` was tested, and the inhibition was inactive: 0.85%.
In the case of `Nc1cccc2ccc([As](=O)(O)O)cc12`, the inhibition is reported as inactive: 2.15%.
For `NC(=O)c1cc([N+](=O)[O-])cc([N+](=O)[O-])c1N`, the inhibition was inactive: 2.08%.
For `Cc1ccc(N/C(=N/P(=O)(N2CCOCC2)N2CCOCC2)N2CCOCC2)cc1`, the inhibition was inactive: -5.32%.
`Cc1ccc(OP(=O)(Nc2nccs2)Oc2ccc(C)cc2)cc1` was tested, and the inhibition was inactive: 0.7%.
In the case of `COc1ccccc1OP(=O)(Nc1ccc(C)cn1)Oc1ccccc1OC`, the inhibition is reported as inactive: -2.46%.
`Clc1ccc(Cl)c(NC2=NCC(CBr)S2)c1` (configuration not stated) was tested, and the inhibition was inactive: -17.4%.
With `Nc1cc(N)c2nonc2c1[N+](=O)[O-]` the inhibition was inactive: 12.2%.
In the case of `Cc1c2non([O-])c-2c(C)[n+](=O)[n+]1[O-]`, the inhibition is reported as inactive: -39.2%.
`O=C(NC(Sc1ccncn1)C(Cl)(Cl)Cl)c1ccccc1` (configuration not stated) was tested, and the inhibition was inactive: -7.03%.
For `COc1ccc(C2=NCC(CBr)S2)cc1` (configuration not stated), the inhibition was inactive: -6.36%.
For `O=[N+]([O-])c1cc([N+](=O)[O-])c(CCNc2ccccc2)c([N+](=O)[O-])c1`, the inhibition was inactive: -0.84%.
`CCc1nc2c(n1)c1c(non1O)c1c2no[n+]1[O-]` was tested, and the inhibition was inactive: 16.6%.
`Cc1ccc(NP(=O)(Oc2ccccc2)Oc2ccccc2)nc1` was tested, and the inhibition was inactive: 3.15%.
For `C[N+]1=C2C=CC=CC=C2SC12C([N+](=O)[O-])=CC([N+](=O)[O-])=C[C-]2[N+](=O)[O-]` (configuration not stated), the inhibition was inactive: -0.39%.
In the case of `Nc1ccc([As](=O)(O)c2ccc(N)cc2)cc1`, the inhibition is reported as inactive: 7.99%.
With `CCN(/C(=N/P(=O)(N1CCOCC1)N1CCOCC1)N1CCOCC1)c1ccc(OC)cc1` the inhibition was inactive: 6.25%.
`CN(C)C(=O)OCCc1n(C)cc[n+]1C` was tested, and the inhibition was inactive: 5.88%.
`CC(C)=N/N=C(\N)N[N+](=O)[O-]` was tested, and the inhibition was inactive: -11.7%.
`O=C(Nc1cc([As](=O)(O)O)ccc1O)c1ccccc1` was tested, and the inhibition was inactive: -1.49%.
With `CC(C)(C)C(=O)NC(Sc1ccncn1)C(Cl)(Cl)Cl` (configuration not stated) the inhibition was inactive: -11.9%.
For `O=[N+]([O-])c1ncn(CCn2ncnc2[N+](=O)[O-])n1`, the inhibition was inactive: -7.71%.
`O=[N+]([O-])c1cccc(NC2=NCC(CBr)S2)c1` (configuration not stated) was tested, and the inhibition was inactive: -9.42%.
With `O=C(O)CNc1ccc([As](=O)(O)O)cc1` the inhibition was inactive: -2.9%.
In the case of `O=P(Nc1ccccn1)(c1ccc(Br)cc1)c1ccc(Br)cc1`, the inhibition is reported as inactive: -5.63%.
With `O=P(Nc1nc2ccccc2s1)(c1ccccc1)c1ccccc1` the inhibition was inactive: -21.4%.
`O=[N+]([O-])c1ncn(CCn2cnc([N+](=O)[O-])n2)n1` was tested, and the inhibition was inactive: -3.13%.
With `CC(=O)NC(SC(=S)N(C)C)C(Cl)(Cl)Cl` (configuration not stated) the inhibition was inactive: 3.91%.
`O=[As](O)(c1ccccc1)c1ccc(O)cc1` was tested, and the inhibition was inactive: -2.02%.
With `Nc1ccc([As](=O)(O)c2ccc([N+](=O)[O-])cc2)cc1` the inhibition was inactive: 0.16%.
In the case of `C(Cc1nn[nH]n1)Cc1nn[nH]n1`, the inhibition is reported as inactive: 1.73%.
In the case of `O=C(OC1CN2CCC1CC2)c1cccc(Cl)c1` (configuration not stated), the inhibition is reported as inactive: -11%.
For `O=P(Nc1nccs1)(c1ccccc1)c1ccccc1`, the inhibition was inactive: 2.9%.
For `CC(C)C(=O)NC(Sc1ccccc1)C(Cl)(Cl)Cl` (configuration not stated), the inhibition was inactive: -4.47%.
In the case of `c1nnnn1CCn1cnnn1`, the inhibition is reported as inactive: -22.6%.
With `CCOc1ccc(C2=NCC(CBr)S2)cc1` (configuration not stated) the inhibition was inactive: 4.7%.
In the case of `O=P1(Nc2nc3ccc(Cl)cc3s2)COc2ccccc2O1` (configuration not stated), the inhibition is reported as inactive: -24.5%.
`CC(C)(C)C(=O)NC(Sc1ccccc1)C(Cl)(Cl)Cl` (configuration not stated) was tested, and the inhibition was inactive: -0.89%.
In the case of `CC(=O)Nc1ccc(Oc2c([N+](=O)[O-])cc([N+](=O)[O-])cc2[N+](=O)[O-])cc1`, the inhibition is reported as inactive: -9.88%.
`CC(=O)Nc1ccc([As](=O)(O)O)c(O)c1` was tested, and the inhibition was inactive: -1.73%.
`O=C(NC1CCS(=O)(=O)C1)NP(=S)(Oc1ccccc1)Oc1ccccc1` (configuration not stated) was tested, and the inhibition was inactive: -11.2%.
For `CCNC(=S)/N=C(\N)N[N+](=O)[O-]`, the inhibition was inactive: -9.96%.
With `Cc1ccc(NP(=O)(Oc2cccc(C)c2)Oc2cccc(C)c2)nc1` the inhibition was inactive: -17.1%.
For `c1ccc(-c2nn[nH]n2)c(-c2nn[nH]n2)c1`, the inhibition was inactive: -5.52%.
With `Cc1ccc(OP(=O)(Nc2ccccn2)Oc2ccc(C)cc2)cc1` the inhibition was inactive: -10.8%.
With `CC(=O)NC(SC(=S)N(CC(C)C)CC(C)C)C(Cl)(Cl)Cl` (configuration not stated) the inhibition was active: 58.8%.
`CN(C)C(=O)Oc1noc2ccccc12` was tested, and the inhibition was inactive: -12.1%.
In the case of `O=c1c2cc([N+](=O)[O-])ccc2[nH]c2c([N+](=O)[O-])cc([N+](=O)[O-])cc12`, the inhibition is reported as inactive: -18.9%.
With `Cc1ccccc1OP(=O)(Nc1ccccn1)Oc1ccccc1C` the inhibition was inactive: 7.38%.
